# Earlier results as cited in patent publication US8951993B2, “Phosphorus containing compounds as protein kinase inhibitors” (Jiangsu Hansoh Pharmaceutical Co., Ltd., priority 2011, dated 2015).
# System: advanced non-small cell lung cancers carrying activated ALK
# Conditions: phase I study, advanced NSCLC carrying activated ALK; cited from earlier work
smiles,measurement,value
C[C@@H](Oc1cc(-c2cnn(C3CCNCC3)c2)cnc1N)c1c(Cl)ccc(F)c1Cl [crizotinib],overall response rate,57%
same,rate of stable disease,33%
